Test results as given in article PMC6862768 (Nature, 2019).

Target: T1, His8-tagged human TBK1, D135N (TBK1–His8) (human, UniProt Q9UHD2 1-729, D135N)
T1 sequence (looked up): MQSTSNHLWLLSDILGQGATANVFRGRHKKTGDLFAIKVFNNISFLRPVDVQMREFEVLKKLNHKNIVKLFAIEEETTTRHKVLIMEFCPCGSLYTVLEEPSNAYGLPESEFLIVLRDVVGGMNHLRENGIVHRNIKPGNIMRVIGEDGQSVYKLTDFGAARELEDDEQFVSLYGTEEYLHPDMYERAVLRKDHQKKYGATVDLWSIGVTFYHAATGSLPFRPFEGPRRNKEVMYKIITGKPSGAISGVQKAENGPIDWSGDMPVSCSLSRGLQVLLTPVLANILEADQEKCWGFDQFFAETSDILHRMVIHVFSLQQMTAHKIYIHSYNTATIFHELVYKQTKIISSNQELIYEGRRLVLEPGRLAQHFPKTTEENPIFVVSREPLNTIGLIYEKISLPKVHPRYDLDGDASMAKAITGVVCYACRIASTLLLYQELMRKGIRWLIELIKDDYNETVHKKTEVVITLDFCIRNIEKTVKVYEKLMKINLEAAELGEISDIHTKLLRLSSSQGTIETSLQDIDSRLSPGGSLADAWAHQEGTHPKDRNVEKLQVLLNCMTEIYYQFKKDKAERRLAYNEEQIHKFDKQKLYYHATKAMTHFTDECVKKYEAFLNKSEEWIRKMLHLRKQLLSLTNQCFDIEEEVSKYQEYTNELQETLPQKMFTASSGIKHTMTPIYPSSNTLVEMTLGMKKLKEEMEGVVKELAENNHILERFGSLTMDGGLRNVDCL
Experiment: pull-down

binding result: binds
B1: Flag-tagged human STING (STING–Flag), purified, captured on anti-Flag M2 resin (natural protein, UniProt Q86WV6 1-379, looked up)
chain: MPHSSLHPSIPCPRGHGAQKAALVLLSACLVTLWGLGEPPEHTLRYLVLHLASLQLGLLLNGVCSLAEELRHIHSRYRGSYWRTVRACLGCPLRRGALLLLSIYFYYSLPNAVGPPFTWMLALLGLSQALNILLGLKGLAPAEISAVCEKGNFNVAHGLAWSYYIGYLRLILPELQARIRTYNQHYNNLLRGAVSQRLYILLPLDCGVPDNLSMADPNIRFLDKLPQQTGDHAGIKDRVYSNSIYELLENGQRAGTCVLEYATPLQTLFAMSQYSQAGFSREDRLEQAKLFCRTLEDILADAPESQNNCRLIAYQEPADDSSFSLSQEVLRHLRQEEKEEVTVGSLKTSAVPSTSTMSQEPELLISGMEKPLPLRTDFS
